High-throughput results (PubChem)
This is a sample that favours compounds with a hit; in the whole collection about 1.7% have one here.
CAL PDZ FP-1: human CAL PDZ-peptide interaction inhibition. Q9HD26. purified CAL PDZ, TMR-peptide fluorescence polarization, 1 h. inhibition, % at 20 µM. 330,000 tested, 0.02% active. AID 504414;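 active means highest replicate inhibition of at least 40%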;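 further: plate controls were DMSO neutral control wells for no effect and unlabeled competitor peptide control wells for full effect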
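Material – purified CerCALP PDZ construct · Detection – FP readout, S and P plane fluorescence · Measure – percent inhibition from loss of millipolarization · Controls – unlabelled peptide for full inhibition, DMSO wells as neutral · Probe or stimulus – TMR-labelled reporter peptide T*-PRC34 bound in PDZ groove · Times – 1 h at RT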
DYRK1A inh: Dyrk1A (rat) kinase inhibition | ADP-Glo luminescence, NFATc1 peptide | AID 504441 | inhibition, % at 12.5 µM | Q63470 | 310,000 tested, 0.43% active; in the data active means inhibition above about 50%;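 further: plate controls were vehicle with enzyme for no effect and no enzyme for full effect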
UUG fidelity: yeast start codon fidelity modulation; AID 602363; activity score, % at 18.7 µM; S. cerevisiae UUG-firefly luciferase reporter, luminescence/redox ratio; 0.13% of 350,000 active;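 active means replicate mean at a twofold rise or more, about +100% in these data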;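 further: firefly luciferase made from a UUG start codon reports start codon fidelity; reporter light over untreated wells divided by growth signal over untreated wells; some hits fall short of that in this replicate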
dFosB act-1: mouse delta FosB homodimer activation; activation, % at 25 µM; 340,000 tested, 0.99% active; purified delta FosB, TAMRA-CDK5 oligo fluorescence polarization; percent of positive-control signal above neutral wells;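 active means mean activation above about 17%, with every replicate also reaching it, limit read from the data, passing the limit was not always enough; inconclusive means only one of the two conditions met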
CAL PDZ FP-2: blocks peptide binding to the human CAL PDZ domain; Q9HD26; purified CAL PDZ, TMR-peptide fluorescence polarization, 1 h; inhibition, % at 24.9 µM; 300,000 tested, 0.92% active; AID 602252;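 active means mean inhibition of at least 30% with at least half of replicates also reaching 30%; inconclusive means no clear call, values can overlap the other calls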;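 further: 0% = DMSO neutral control and 100% = excess unlabeled competitor peptide PRC23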
CDK5 p35 inh: inhibitors of human CDK5/p35 kinase; 330,000 tested, 0.01% active; Q00535+Q15078; AID 488839; inhibition, % at 10 µM; Recombinant CDK5/p35, ADP-Glo luminescence, 60 min;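 active means highest replicate inhibition of at least 50% and at least 75% of replicates reaching 50%; inconclusive means only one of the two criteria met; inactive means both criteria failed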;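 further: plate controls were DMSO neutral control for no effect and GW8510 at 10 µM for full effect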
dFosB act-2: enhances mouse delta FosB homodimer binding to DNA; purified delta FosB, TAMRA-CDK5 oligo fluorescence polarization; normalised: neutral wells 0, positive control 100; shares compounds with dFosB act-1; 2,400 tested, under 10 active; activation, % at 24.9 µM;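 active means highest replicate activation at or above 34% and every replicate reaching that threshold; inconclusive means meets only one of the two criteria; inactive means meets neither criterion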;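 further: higher polarization means more probe DNA bound by delta FosB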
* marks the source's active call; other numbers are inactive results; ? = inconclusive; · = not tested or not shown.

molecule	CAL PDZ FP-1	DYRK1A inh	UUG fidelity	dFosB act-1	CAL PDZ FP-2	CDK5 p35 inh	dFosB act-2
CCCCn1c(N)c(N(CC(C)C)C(=O)C2CCN(S(=O)(=O)c3ccccc3)CC2)c(=O)[nH]c1=O	1	-2	·	55*	-3	1	4
CCCCn1c(N)c(N(CCC(C)C)C(=O)C2CC(=O)N(c3ccc4c(c3)OCCO4)C2)c(=O)[nH]c1=O (configuration not stated)	13	-2	-2	0	-6	-1	·
CCCCn1c(N)c(N(CCC(C)C)C(=O)C2CC(=O)N(c3cccc(SC)c3)C2)c(=O)[nH]c1=O (configuration not stated)	2	10	-2	40*	4	-4	6
O=C(Cn1c2ccccc2c(=O)c2ccccc21)Nc1cccc(F)c1	-2	-2	·	37*	-4	-1	4
O=C(CC(=O)Nc1cccc(F)c1)Nc1cccc(F)c1	-4	·	49	-2	-2	-1	·
Cc1nn(C)cc1/C=N/NC(=S)Nc1ccc(Cl)cc1Cl	-1	-1	-19	34*	-2	1	5
CCn1nc(C)c(/C=N/NC(=S)Nc2ccc(Cl)cc2Cl)c1C	-1	-1	-18	?	-4	-1	·
CC(C)NC(=O)c1ccc2c3n(nc2c1)-c1ccc(Cl)cc1CO3	-1	0	-14	-6	6	0	·
CCN(CC)CCCNC(=O)c1ccc2c3n(nc2c1)-c1ccc(Cl)cc1CO3	-5	4	-7	34*	-6	2	-3
COc1cccc(-c2ccc(-c3noc(-c4ccccc4F)n3)c(OC)n2)c1	0	-1	-9	-9	1	2	·
COc1nc(-c2ccc(Cl)cc2)ccc1-c1noc(-c2ccco2)n1	0	6	-10	30*	-3	-1	0
O=C(C[C@H]1CC[C@@H]2[C@H](COC[C@H](O)CN2Cc2cccc(-c3ccncc3)c2)O1)N1CCN(c2ccccc2)CC1	·	·	-2	·	·	·	·
CSc1nc2ccccc2n1CC(=O)Nc1ccc(C)c(C)c1	0	-6	·	-1	0	1	·
Cc1cccc(CSc2nc3ccncc3n2CC(=O)Nc2cc(C)cc(C)c2)c1	0	0	17	33*	·	0	-1
Cc1c(Cl)cccc1NC(=O)CC1Sc2ccccc2NC1=O (configuration not stated)	-1	-3	-2	46*	-3	-1	2
Cc1ccc(C)c(NC(=O)CC2Sc3ccccc3NC2=O)c1 (configuration not stated)	1	-2	·	1	-3	0	·
CC(C)c1ccc(NC(=O)CC2Oc3ccccc3NC2=O)cc1 (configuration not stated)	0	-1	-15	0	-7	1	·
Cc1c(Cl)cccc1NC(=O)CC1Oc2ccccc2NC1=O (configuration not stated)	-1	-2	·	23*	-7	-2	5
COc1cccc(/C=C2/Sc3ccc(C(=O)NCCCN4CCCC4)cc3NC2=O)c1	-10	20	-13	37*	-9	20	4
CCOc1ccc(-n2cc(C(=O)Nc3cccc(OC)c3)c3cc(OC)c(OC)cc3c2=O)cc1	-4	4	-10	40*	-4	1	4
CCOc1ccc(-n2cc(C(=O)NCCOC)c3cc(OC)c(OC)cc3c2=O)cc1	1	-6	9	-9	-2	-3	·

3 compounds already listed, arranged by the number in CAL PDZ FP-1, rising.
structure	CAL PDZ FP-1
O=C(Cn1c2ccccc2c(=O)c2ccccc21)Nc1cccc(F)c1	-2
COc1cccc(-c2ccc(-c3noc(-c4ccccc4F)n3)c(OC)n2)c1	0
CCCCn1c(N)c(N(CC(C)C)C(=O)C2CCN(S(=O)(=O)c3ccccc3)CC2)c(=O)[nH]c1=O	1
